Measured values published in US20250042961A1, “P53 PEPTIDOMIMETIC MACROCYCLES” (MERCK SHARP & DOHME LLC, priority 2021, published 2025).
Read-outs that look alike come from different tables or passages of the source.

How the values were obtained:
[1] = system: p53 responsive β-lactamase reporter in HCT116 cells; assay: p53 beta-lactamase reporter gene cellular functional assay; format: cell-based
[2] = Circular dichroism (CD) helicity; format: physicochemical
Description: A total of 5 μL of the 10 mM stock peptide was mixed with 45 μL of 100% methanol and dried for 2 hours in the SpeedVac™ concentrator (Thermo Scientific). The dried peptide was reconstituted in a buffer (1 mM Hepes pH 7.4 and 5% methanol) to a concentration of 1 mM. The peptide sample was placed in a quartz cuvette with a path length of 0.2 cm. The peptide concentration was determined by the absorbance of the peptide at […]. The CD spectrum was recorded from 300 to 190 nm using the Chirascan-plus qCD machine (Applied Photophysics, Surrey, UK), at 25° C. All experiments were done in duplicates. The CD spectrum was converted to mean residue ellipticity before deconvolution and estimation of the secondary structure components of the peptide using the CDNN software (distributed by Applied Photophysics). Measurements were taken at least twice and were reported as arithmetic means.

[3] = system: Jump-In T-REx CHO-K1 BLA cells; assay: Tetracycline beta-lactamase reporter gene cellular assay (counterscreen); format: cell-based
HCT116 = format: cell-based; settings: 72 hours, 10% serum
Excerpt: (§1) To further establish the impact of the above modification in making cleaner “drug” like compounds, we profiled a set of compounds of the invention in cellular proliferation assays (Table 3).

p53 null Ca Ski = format: cell-based; settings: 72 hours, 10% serum
Excerpt: as §1

[4] = read-out: p53 activity EC50 (0% FBS, 4 h), 0% FBS, 4 h
[5] = read-out: p53 activity EC50 (10% FBS, 16 h), 10% FBS, 16 h
[6] = read-out: Counter screen EC50 (0% FBS, 4 h), 0% FBS, 4 h
[7] = read-out: Counter screen EC50 (10% FBS, 16 h), 10% FBS, 16 h

Compound	EC50 [1, 4]	EC50 [1, 5]	chromatographic logD (HPLC LogD)	CD (% helicity) [2]	EC50 [3, 6]	EC50 [3, 7]	HCT116 proliferation % Max (HCT116)	EC50 (HCT116; read-out: HCT116 proliferation EC50)	p53 null Ca Ski proliferation % Max (inhibition at maximum concentration) (p53 null Ca Ski)	overall improvement of cellular activity compared to parent peptide ([1]; 10% serum)	HPLC LogD (HPLC LogD)
CC(C)C[C@@H](NC(=O)[C@@]1(C)CCCC=CCCC[C@@](C)(NC(=O)[C@@H](C)NC(=O)[C@@H](Cc2ccc(O)cc2)NC(=O)[C@@H](Cc2c[nH]c3cc(F)ccc23)NC(=O)[C@@H](C)NC(=O)[C@H](N)[C@H](C)O)C(=O)N[C@H](Cc2ccc(C(F)(F)F)cc2)C(=O)N[C@H](CCC(=O)O)C(=O)N[C@H](CCCCN)C(=O)N1)C(=O)N[C@H](CCCNC(=N)N)C(N)=O [Compound 1, ^DPMI-δ-(6-10 olefinstaple)-NH2, reference compound]	10.1 µM	> 50 µM	2.26	38.6%	10.7 µM	> 50 µM					
CC(=O)N[C@@H](C(=O)N[C@H](C)C(=O)N[C@H](Cc1c[nH]c2cc(F)ccc12)C(=O)N[C@H](Cc1ccc(O)cc1)C(=O)N[C@@]1(C)CCCC#CC#CCCCC[C@](C)(C(=O)N[C@H](C)C(=O)N[C@H](C)C(=O)N[C@H](C)C(=O)N[C@H](C)C(=O)N[C@H](C)C(=O)N[C@H](C)C(N)=O)NC(=O)[C@@H](CC(C)C)NC(=O)[C@@H](CC(C)C)NC(=O)[C@@H](CCC(N)=O)NC(=O)[C@@H](CCC(=O)O)NC(=O)[C@@H](Cc2ccc(C(F)(F)F)cc2)NC(=O)[C@@H](CC(N)=O)NC1=O)[C@H](C)O [Compound 9, Acetyl-^DPMI-δ-(5-12 alkynestaple) (D-K9D-Q, 6x(D-Ala)polypeptidetail)-NH2]	3.97 µM	0.3 µM		38.9%	> 50 µM	> 50 µM	73%	0.65 µM	−0.5%^	100 fold	2.12
CC(=O)N[C@@H](C(=O)N[C@H](C)C(=O)N[C@H](Cc1c[nH]c2cc(F)ccc12)C(=O)N[C@H](Cc1ccc(O)cc1)C(=O)N[C@@]1(C)CCCC#CC#CCCCC[C@](C)(C(=O)N[C@H](CCC(=O)O)C(=O)N[C@H](C)C(=O)N[C@H](C)C(=O)N[C@H](C)C(=O)N[C@H](C)C(=O)N[C@H](C)C(N)=O)NC(=O)[C@@H](CC(C)C)NC(=O)[C@@H](CC(C)C)NC(=O)[C@@H](CCC(N)=O)NC(=O)[C@@H](CCC(=O)O)NC(=O)[C@@H](Cc2ccc(C(F)(F)F)cc2)NC(=O)[C@@H](CC(N)=O)NC1=O)[C@H](C)O [Compound 10, Acetyl-^DPMI-δ-(5-12 alkynestaple) (D-K9D-Q, (D-E)-5x(D-A)polypeptidetail)-NH2]	9.47 µM	5 µM		38.9%	> 50 µM	> 50 µM					
